Earlier results in patent publication US9108900B2, “Method of treating diseases that respond to therapy by dopamine or dopamine agonists” (UCB Pharma GmbH, priority 2003, dated 2015).

Protein sequences, listed by entry. Tags and fused reporters are not part of them.
UniProt P35462, whole entry: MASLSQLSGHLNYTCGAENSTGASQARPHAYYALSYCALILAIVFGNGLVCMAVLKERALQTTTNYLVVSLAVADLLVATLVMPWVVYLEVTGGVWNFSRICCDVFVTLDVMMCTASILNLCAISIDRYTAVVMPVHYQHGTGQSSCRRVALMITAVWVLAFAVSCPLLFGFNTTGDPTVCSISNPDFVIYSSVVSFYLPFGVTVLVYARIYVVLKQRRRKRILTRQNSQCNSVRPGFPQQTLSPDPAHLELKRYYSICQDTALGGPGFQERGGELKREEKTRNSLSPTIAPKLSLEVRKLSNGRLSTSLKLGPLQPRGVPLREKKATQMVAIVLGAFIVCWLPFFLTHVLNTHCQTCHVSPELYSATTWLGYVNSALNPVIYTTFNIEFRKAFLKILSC

Molecular target: D3 receptor (Homo sapiens, UniProt P35462)
Details: Hacking & Stark, ChemBioChem 2002, 947; cited from earlier work

| SMILES | D3 preference in comparison to (S)-2-N-propylamino-5-hydroxytetralin |
| --- | --- |
| CCCNC1CCc2c(OC)cccc2C1C (centres unmarked) [AJ76] | reduced D3 preference |
| CCCN(CCC)[C@@H]1CCc2c(OC)cccc2[C@@H]1C [UH232] | reduced D3 preference |
